HDAC3 inh – human HDAC3 inhibition; hit rate 0.15% among 320,000; AID 2718; recombinant HDAC3, fluorogenic peptide/trypsin coupled, fluorescence; inhibition, % at 8.3 µM; in the data active = inhibition above about 26%, passing the limit was not always enough; inconclusive = no clear call, values can overlap the other calls
MC4R ag barr – human MC4R agonism via beta-arrestin. P32245. U2OS MC4R beta-arrestin complementation, luminescence; percent of melanotan II response, DMSO zero. activation, % at 8.9 µM. hit rate 0.98% among 360,000. AID 540308;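 active = activation above a per-plate cutoff, the mean activation of sample wells on that plate plus 3 SD, cut at about 8% in these data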
ALR inh – inhibitors of human ALR sulfhydryl oxidase, primary screen, biochemical, H2O2 detection, HRP-luminol luminescence, single point; FAD-linked sulfhydryl oxidase ALR (Homo sapiens), P55789; purified ALR, DTT oxidation; inhibition, % (test concentration not listed); 290,000 tested, 3.8% active; AID 485317, 2010;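 active = mean and each replicate at 75% or more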;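 note: stock transfer was 7.5 nL into about 7.5 µL; 0% = neutral wells and 100% = wells with inactivated enzyme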
Yeast UUG start – modulators of start codon recognition fidelity in yeast; S. cerevisiae UUG-firefly luciferase reporter, luminescence/redox ratio; AID 602363; 350,000 tested, 0.13% active; activity score, % at 18.7 µM;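 active = replicate mean at a twofold rise or more, about +100% in these data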;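 also: firefly luciferase made from a UUG start codon reports start codon fidelity; reporter light over untreated wells divided by growth signal over untreated wells; some hits fall short of that in this replicate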
NALP1 yeast inh – blocks the NALP1 inflammasome reconstituted in yeast; S. cerevisiae NALP1/ASC/caspase-1 growth, X-gal OD620, 72 h; inhibition, % at 10 µM; hit rate 0.61% among 280,000; in the data active = inhibition mostly above about 24%, no sharp cut-off; inactive = mostly below about 32%
MC4R antagonist – blocks human MC4R cAMP signaling. MC4R-expressing cells, MTII-stimulated cAMP, LANCE TR-FRET. inhibition, % at 6.5 µM. P32245. AID 540295. hit rate 0.48% among 360,000;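 active = inhibition above its plate's cutoff, the mean of tested wells on that plate plus 3 SD, cut at about 29% in these data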;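 also: 0% = Melanotan II alone and 100% = Melanotan II plus saturating MCL0020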
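System: U2OS-MC4R stable cell line; Technique: Eu-cAMP/anti-cAMP TR-FRET, emission 671 nm; Repeats: single well per compound; Also added: Melanotan II; Dosing: one concentration, 6.5 µM nominal; Schedule: 30-min compound, 1-h challenge, 1-h detection, room temperature.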
* marks the source's active call; other numbers are inactive results; ? = inconclusive; nt = no result given. Sampled rows, rich in hits. Any-hit rate of the full collection: about 4.2%.

SMILES | HDAC3 inh | MC4R ag barr | ALR inh | Yeast UUG start | NALP1 yeast inh | MC4R antagonist
O=C(Nc1ncc(C(F)(F)F)cc1Cl)C1COc2ccccc2O1 (stereo not given) | 1 | -2 | -4 | -14 | 40* | 4
C[C@H](CO)N1C[C@H](C)[C@@H](CN(C)Cc2ccncc2)Oc2ccc(NC(=O)NC3CCCCC3)cc2CC1=O | nt | nt | nt | 2 | nt | nt
C/C=C/C=C/C(=O)N1CC2(CC(c3cccc(NC(=O)CCCCC)c3)=NO2)C[C@H]1C(N)=O (stereo not given in full) | 61* | -2 | nt | -1 | 0 | 3
CCCC(=O)Nc1ccc2c(c1)C(=O)N(C)[C@@H]1CC[C@@H](CC(=O)NCCOC)O[C@@H]1CO2 | nt | nt | nt | -24 | nt | nt
O=C(NNS(=O)(=O)c1ccc(F)cc1)c1ccccc1F | 1 | 0 | 24 | -15 | 2 | -2
O=C(NNS(=O)(=O)c1ccc(F)cc1)c1cc2ccccc2cc1O | 3 | 0 | 98* | -12 | -2 | 11
COc1ccc(S(=O)(=O)NNC(=O)c2ccccc2-n2cccc2)cc1 | 5 | -2 | 24 | -9 | 36* | 6
C[C@@H]1CN([C@H](C)CO)S(=O)(=O)c2ccc(-c3cccc(F)c3)cc2O[C@H]1CN(C)S(=O)(=O)c1ccccc1 | nt | nt | nt | -15 | nt | nt
O=C(C[C@H]1C=C[C@H](NC(=O)c2ccncc2)[C@H](CO)O1)NCCc1ccncc1 | nt | nt | nt | 5 | nt | nt
CCCNC(=O)[C@@]1(Sc2ccc(C)cc2)CC(=O)N(C2CCCCC2)[C@@H]1c1ccc(CO)cc1I | nt | nt | nt | 23 | nt | nt
CC(C)Cc1csc(NC(=O)c2ccc(Cl)cc2)c1C(=O)O | 3 | -1 | 12 | -10 | 26 | 5
Cc1cccc(C(=O)Nc2scc(CC(C)C)c2C(=O)O)c1 | -2 | -3 | 96* | -12 | 14 | 2
CC(C)Cc1csc(NC(=O)c2ccccc2Cl)c1C(=O)O | -81 | -1 | 96* | nt | 13 | 3
CN(C)c1ccc(/C=C/c2cc[n+](C)cc2)cc1 | 3 | -1 | 99* | nt | -2 | -37
CN(C)c1ccc(/C=C/c2cc[n+]([O-])cc2)cc1 | 11 | nt | 99* | nt | 6 | nt

2 records picked at random from those above, as already listed:
SMILES | HDAC3 inh | MC4R ag barr | ALR inh | Yeast UUG start | NALP1 yeast inh | MC4R antagonist
CN(C)c1ccc(/C=C/c2cc[n+]([O-])cc2)cc1 | 11 | nt | 99* | nt | 6 | nt
COc1ccc(S(=O)(=O)NNC(=O)c2ccccc2-n2cccc2)cc1 | 5 | -2 | 24 | -9 | 36* | 6

The list continues:
SMILES | HDAC3 inh | MC4R ag barr | ALR inh | Yeast UUG start | NALP1 yeast inh | MC4R antagonist
Cc1ccc(/C=C/c2ccc(N(C)C)cc2)[n+](C)c1 | 13 | -1 | 99* | -7 | -8 | -35
CCCCCC[n+]1ccccc1/C=C/c1ccc(N(C)C)cc1 | nt | 1 | nt | 16 | nt | -12
CC[n+]1ccccc1/C=C/c1ccc(N(C)C)cc1 | nt | -1 | nt | 1 | 11 | -26
C[C@@H]1CN([C@@H](C)CO)C(=O)Cc2cc(NS(=O)(=O)c3ccc(Cl)cc3)ccc2O[C@H]1CN(C)S(=O)(=O)c1cn(C)cn1 | nt | nt | nt | 3 | nt | nt
C[C@H](CO)N1C[C@H](C)[C@@H](CN(C)S(=O)(=O)c2cn(C)cn2)Oc2c(NS(=O)(=O)c3ccc(Cl)cc3)cccc2C1=O | nt | nt | nt | -2 | nt | nt
O=C(NC1CCCCC1)N1CCN(c2ccc([N+](=O)[O-])cc2)CC1 | 3 | -2 | 18 | 1 | 4 | 6
O=C(NC1CCCCC1)N1CCN(c2ccc(Cl)cc2)CC1 | 2 | -3 | 99* | -5 | 31 | 7
COCCNC(=O)C(=O)c1cc(C)n(-c2ccc([N+](=O)[O-])cc2)c1C | -2 | -1 | 97* | -2 | 34 | 3
Cc1cc(C(=O)C(=O)NC(C)C)c(C)n1-c1ccc([N+](=O)[O-])cc1 | 1 | 1 | -13 | 2 | 4 | 6
O=C(NNc1c2ccccc2nc2ccccc12)C12CC3CC(CC(C3)C1)C2 | 6 | 0 | nt | 3 | 19 | 23
O=C(NNc1c2ccccc2nc2ccccc12)c1cccc(O)c1 | 11 | -2 | 99* | nt | 21 | -10
O=C(NNc1c2ccccc2nc2ccccc12)c1ccc(O)cc1 | ? | -3 | 99* | nt | 15 | -17
O=C(NNC(=O)c1ccc2ccccc2n1)c1ccc(O)cc1 | nt | -1 | nt | -19 | nt | 5
O=C(NNc1c2ccccc2nc2ccccc12)C(O)c1ccccc1 (stereo not given) | -2 | 0 | 99* | -8 | nt | 9
COCCNC(=O)C[C@H]1C=C[C@H](NC(=O)NC2CCCCC2)[C@@H](CO)O1 | nt | nt | nt | -5 | nt | nt

Two neighbouring compounds already listed, for reference:
SMILES | HDAC3 inh | MC4R ag barr | ALR inh | Yeast UUG start | NALP1 yeast inh | MC4R antagonist
O=C(NNc1c2ccccc2nc2ccccc12)C(O)c1ccccc1 (stereo not given) | -2 | 0 | 99* | -8 | nt | 9
COCCNC(=O)C[C@H]1C=C[C@H](NC(=O)NC2CCCCC2)[C@@H](CO)O1 | nt | nt | nt | -5 | nt | nt

(next part)
SMILES | HDAC3 inh | MC4R ag barr | ALR inh | Yeast UUG start | NALP1 yeast inh | MC4R antagonist
COc1ccccc1NC(=O)N[C@@H]1CC[C@@H](CC(=O)N2CCC(Cc3ccccc3)CC2)O[C@@H]1CO | nt | nt | nt | 17 | nt | nt
Cc1c(Cl)cccc1NC(=O)COC(=O)CCc1nc2ccccc2n1-c1ccccc1 | nt | 8.3* | nt | -5 | 30 | 14
O=C(COC(=O)CCc1nc2ccccc2n1-c1ccccc1)Nc1cccc(Cl)c1 | -1 | 4 | -7 | -3 | 27 | -4
CCNc1nc(NCC)n2c(SCC(=O)Nc3ccc(NC(C)=O)cc3)nnc2n1 | -2 | -1 | 98* | -4 | nt | 10
CCNc1nc(NCC)n2c(SCC(=O)Nc3ccc(CC)cc3)nnc2n1 | 6 | -2 | 99* | -21 | nt | 3
COC(=O)C[C@H]1CC[C@@H]2[C@@H](COc3ccc(NC(=O)c4cccc(OC)c4)cc3C(=O)N2C)O1 | nt | nt | nt | -1 | nt | nt
CC(=O)Nc1ccc(N2CCCCC2)c(C(=O)Nc2cccc(C)c2)c1 | 13 | 2 | 97* | 4 | 12 | 0
Cc1ccc(NC(=O)c2cc(NC(=O)/C=C\C(=O)O)ccc2N2CCCCC2)cc1 | 0 | -3 | 99* | -5 | 3 | 3
Cc1ccc(NC(=O)c2cc(NC(=O)c3ccccc3C(=O)O)ccc2N2CCCCC2)cc1 | -2 | 2 | 99* | nt | 20 | 13
Cc1cccc(NC(=O)c2cc(NC(=O)C3CCCCC3C(=O)O)ccc2N2CCCCC2)c1 (stereo not given) | -3 | -2 | nt | 21 | -5 | 13
Cc1ccc(S(=O)(=O)N[C@@H]2C=C[C@@H](CC(=O)NCCc3ccncc3)O[C@H]2CO)cc1 | nt | nt | nt | -10 | nt | nt
CCC(=O)N(C)C[C@H]1Oc2cc(-c3ccncc3)ccc2S(=O)(=O)N([C@H](C)CO)C[C@@H]1C | nt | nt | nt | -3 | nt | nt
O=C(O)CCC1c2cc3c4cc2OC2Oc5cc6c(cc51)C(CCC(=O)O)c1cc5c7cc1OC(O6)c1cc6cc(c1)Oc1cc(cc(C(=O)O)c1)Oc1cc8cc(c1)C(Oc1cc(c(cc1C5CCC(=O)O)C3CCC(=O)O)OC(O4)c1cc(cc(c1)Oc1cc(cc(C(=O)O)c1)O8)Oc1cc(cc(C(=O)O)c1)Oc1cc(cc2c1)Oc1cc(cc(C(=O)O)c1)O6)O7 (stereo not given) | -17 | nt | 98* | nt | nt | nt
O=C(C[C@H]1CC[C@@H](NC(=O)Nc2ccc(F)cc2)[C@@H](CO)O1)NCc1ccccn1 | nt | nt | nt | -14 | nt | nt
CCn1c(-c2c[nH]c3ccccc23)n[nH]c1=S | 7 | -3 | 55 | -25 | -16 | 1
CCn1c(-c2cc(C3CC3)nc3ccccc23)n[nH]c1=S | 6 | -1 | 31 | 8 | 13 | 17
CCn1c(-c2cc(Br)ccc2O)n[nH]c1=S | -2 | 1 | 98* | -15 | nt | -2

Individual results from the list:
ALR inh result of `CC(=O)Nc1ccc(N2CCCCC2)c(C(=O)Nc2cccc(C)c2)c1` is entered as 97*
Yeast UUG start result of `COc1ccccc1NC(=O)N[C@@H]1CC[C@@H](CC(=O)N2CCC(Cc3ccccc3)CC2)O[C@@H]1CO` is entered as 17
MC4R antagonist result of `O=C(COC(=O)CCc1nc2ccccc2n1-c1ccccc1)Nc1cccc(Cl)c1` is entered as -4
